Measured values published in PubChem BioAssay AID845 (Columbia University Molecular Screening Center, 2007).
Only a part is listed here, and it is no random draw. Some tests of the compounds listed are not included; inactive here does not mean inactive elsewhere. The source made the active and inactive calls.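 How the source made its calls: active means cell count reduction more than 3 SD above the screen-wide mean (cut at about 70% in these data); inactive means the rest.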

Assay: cytotoxicity in IL-1B stimulated HUVEC, primary screen, cytotoxicity control for IL-1B NFkB translocation project, imaging, Hoechst nuclear count, IL-1B stimulus (AID 845);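 further: normalized per plate to untreated control cells as the no-loss baseline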
Conditions: HUVEC cell count loss, at 2 µM, hits give high values
For `CC(C)N1C(=O)CC2(CCN(CCOC(=O)C(O)(c3ccccc3)c3ccccc3)CC2)C1=O`, the cell count reduction was inactive: -44.9%. In the case of `CN(C)c1cccc(C(=O)NCC2(N(C)C)CCCCC2)c1`, the cell count reduction is reported as inactive: -6.6%. In the case of `O=C(OC1CN2CCC1CC2)C(CO)(c1ccccc1)c1ccccc1` (stereo not drawn), the cell count reduction is reported as inactive: 14.1%.
